Measurements taken from ChEMBL document CHEMBL1128310, “Antitumor imidazotetrazines. 32. Synthesis of novel imidazotetrazinones and related bicyclic heterocycles to probe the mode of action of the antitumor drug temozolomide” (J Med Chem, 1995).

System: GM892A cell line
Assay: In vitro cytotoxicity against human lymphoblastoid cell (GM892 A)

SMILES: CN(N=O)C(=N)N[N+](=O)[O-]
- IC50: 200 nM
